# Data taken from ChEMBL document CHEMBL1212912, “Phenylsulfonylfuroxans as modulators of multidrug-resistance-associated protein-1 and P-glycoprotein” (J Med Chem, 2010).
# The chains behind the UniProt entries cited, without tags or fusion partners. Where a name states a change or a piece, a line headed by the entry shows the natural chain unless it says otherwise.
# UniProt P33527: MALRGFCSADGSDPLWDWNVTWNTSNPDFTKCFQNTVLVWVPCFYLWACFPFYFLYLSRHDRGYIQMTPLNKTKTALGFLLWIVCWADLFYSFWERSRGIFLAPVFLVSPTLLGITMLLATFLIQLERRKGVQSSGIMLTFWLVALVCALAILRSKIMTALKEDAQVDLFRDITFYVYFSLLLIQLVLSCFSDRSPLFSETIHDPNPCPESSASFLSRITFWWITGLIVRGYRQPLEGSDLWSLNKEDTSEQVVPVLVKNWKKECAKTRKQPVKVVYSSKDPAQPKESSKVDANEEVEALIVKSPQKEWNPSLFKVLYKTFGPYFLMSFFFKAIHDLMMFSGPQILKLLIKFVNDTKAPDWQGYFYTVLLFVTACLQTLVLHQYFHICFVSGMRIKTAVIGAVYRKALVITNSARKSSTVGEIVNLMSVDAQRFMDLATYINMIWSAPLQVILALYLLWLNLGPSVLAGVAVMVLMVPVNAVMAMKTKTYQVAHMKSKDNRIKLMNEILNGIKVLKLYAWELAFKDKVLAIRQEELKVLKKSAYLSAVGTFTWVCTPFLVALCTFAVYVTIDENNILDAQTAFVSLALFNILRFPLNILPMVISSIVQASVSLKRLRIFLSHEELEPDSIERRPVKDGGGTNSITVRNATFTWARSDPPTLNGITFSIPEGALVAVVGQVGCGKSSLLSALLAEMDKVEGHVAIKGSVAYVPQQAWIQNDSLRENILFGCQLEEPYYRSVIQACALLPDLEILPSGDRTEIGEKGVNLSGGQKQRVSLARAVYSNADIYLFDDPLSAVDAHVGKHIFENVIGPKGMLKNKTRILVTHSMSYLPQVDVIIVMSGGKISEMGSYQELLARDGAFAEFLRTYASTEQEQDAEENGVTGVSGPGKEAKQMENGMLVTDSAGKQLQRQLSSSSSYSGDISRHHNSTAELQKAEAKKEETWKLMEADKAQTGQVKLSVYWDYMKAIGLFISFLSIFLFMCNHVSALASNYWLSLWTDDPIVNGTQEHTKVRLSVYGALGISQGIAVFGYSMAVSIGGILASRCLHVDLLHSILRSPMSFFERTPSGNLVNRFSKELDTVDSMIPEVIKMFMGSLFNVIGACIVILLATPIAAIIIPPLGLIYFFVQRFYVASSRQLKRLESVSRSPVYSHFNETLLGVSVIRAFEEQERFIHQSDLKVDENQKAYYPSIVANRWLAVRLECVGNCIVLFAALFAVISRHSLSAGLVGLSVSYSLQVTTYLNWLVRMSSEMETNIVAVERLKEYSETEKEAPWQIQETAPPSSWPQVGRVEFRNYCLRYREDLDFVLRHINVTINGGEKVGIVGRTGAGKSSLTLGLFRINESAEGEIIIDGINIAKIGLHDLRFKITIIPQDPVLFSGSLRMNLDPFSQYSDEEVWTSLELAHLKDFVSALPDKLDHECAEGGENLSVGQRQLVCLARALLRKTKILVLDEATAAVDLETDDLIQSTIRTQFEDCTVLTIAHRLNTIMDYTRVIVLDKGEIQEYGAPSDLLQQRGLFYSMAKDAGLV
# UniProt P08183, whole entry, looked up: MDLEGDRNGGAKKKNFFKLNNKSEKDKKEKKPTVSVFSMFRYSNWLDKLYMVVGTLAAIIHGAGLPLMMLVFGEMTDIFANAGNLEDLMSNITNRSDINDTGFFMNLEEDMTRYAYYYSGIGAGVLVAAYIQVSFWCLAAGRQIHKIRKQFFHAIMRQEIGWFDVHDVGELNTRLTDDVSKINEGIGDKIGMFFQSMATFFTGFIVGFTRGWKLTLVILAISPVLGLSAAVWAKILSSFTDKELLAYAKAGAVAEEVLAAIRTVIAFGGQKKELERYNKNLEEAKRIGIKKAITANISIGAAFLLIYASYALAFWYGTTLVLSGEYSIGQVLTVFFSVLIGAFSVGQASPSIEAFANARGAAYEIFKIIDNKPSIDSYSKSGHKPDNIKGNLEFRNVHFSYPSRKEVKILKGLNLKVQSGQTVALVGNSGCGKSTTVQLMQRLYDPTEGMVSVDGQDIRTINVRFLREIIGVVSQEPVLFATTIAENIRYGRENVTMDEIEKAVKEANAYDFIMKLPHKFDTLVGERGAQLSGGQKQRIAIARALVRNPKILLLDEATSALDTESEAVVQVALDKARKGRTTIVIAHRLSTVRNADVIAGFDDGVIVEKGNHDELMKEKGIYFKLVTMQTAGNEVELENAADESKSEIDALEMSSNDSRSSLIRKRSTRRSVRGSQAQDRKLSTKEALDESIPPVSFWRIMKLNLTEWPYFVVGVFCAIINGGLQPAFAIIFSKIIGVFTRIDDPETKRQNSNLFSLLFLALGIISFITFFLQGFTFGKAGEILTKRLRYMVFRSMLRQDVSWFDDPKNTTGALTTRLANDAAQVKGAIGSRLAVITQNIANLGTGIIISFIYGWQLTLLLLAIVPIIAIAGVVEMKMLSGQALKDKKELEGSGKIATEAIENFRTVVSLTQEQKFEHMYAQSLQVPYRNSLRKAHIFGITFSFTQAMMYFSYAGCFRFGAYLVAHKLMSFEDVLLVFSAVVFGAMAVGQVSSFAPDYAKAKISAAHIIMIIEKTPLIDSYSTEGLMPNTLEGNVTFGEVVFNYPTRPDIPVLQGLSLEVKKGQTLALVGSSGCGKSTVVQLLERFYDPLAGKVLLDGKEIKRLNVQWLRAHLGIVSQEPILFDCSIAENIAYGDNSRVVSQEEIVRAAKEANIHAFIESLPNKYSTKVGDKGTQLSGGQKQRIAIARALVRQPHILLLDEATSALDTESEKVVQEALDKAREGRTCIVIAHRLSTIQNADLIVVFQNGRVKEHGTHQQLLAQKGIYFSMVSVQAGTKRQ
# What was measured:
# [1] = target: Multidrug resistance-associated protein 1 (Homo sapiens, UniProt P33527); settings: mdck
# [2] = target: ATP-dependent translocase ABCB1 (Homo sapiens, UniProt P08183); experiment: Inhibition of MDR1 expressed in MDCK cells assessed as calcein AM accumulation by fluorescence assay
compound,measurement,setting,value
O=[N+]([O-])c1no[n+]([O-])c1-c1ccccc1,EC50,[1],98 µM
same,EC50,[2],> 100 µM
